Each structure is given as a SMILES string.

Sequences of proteins named here, by UniProt entry; tags and fusion partners are left off.
UniProt P04626, whole entry: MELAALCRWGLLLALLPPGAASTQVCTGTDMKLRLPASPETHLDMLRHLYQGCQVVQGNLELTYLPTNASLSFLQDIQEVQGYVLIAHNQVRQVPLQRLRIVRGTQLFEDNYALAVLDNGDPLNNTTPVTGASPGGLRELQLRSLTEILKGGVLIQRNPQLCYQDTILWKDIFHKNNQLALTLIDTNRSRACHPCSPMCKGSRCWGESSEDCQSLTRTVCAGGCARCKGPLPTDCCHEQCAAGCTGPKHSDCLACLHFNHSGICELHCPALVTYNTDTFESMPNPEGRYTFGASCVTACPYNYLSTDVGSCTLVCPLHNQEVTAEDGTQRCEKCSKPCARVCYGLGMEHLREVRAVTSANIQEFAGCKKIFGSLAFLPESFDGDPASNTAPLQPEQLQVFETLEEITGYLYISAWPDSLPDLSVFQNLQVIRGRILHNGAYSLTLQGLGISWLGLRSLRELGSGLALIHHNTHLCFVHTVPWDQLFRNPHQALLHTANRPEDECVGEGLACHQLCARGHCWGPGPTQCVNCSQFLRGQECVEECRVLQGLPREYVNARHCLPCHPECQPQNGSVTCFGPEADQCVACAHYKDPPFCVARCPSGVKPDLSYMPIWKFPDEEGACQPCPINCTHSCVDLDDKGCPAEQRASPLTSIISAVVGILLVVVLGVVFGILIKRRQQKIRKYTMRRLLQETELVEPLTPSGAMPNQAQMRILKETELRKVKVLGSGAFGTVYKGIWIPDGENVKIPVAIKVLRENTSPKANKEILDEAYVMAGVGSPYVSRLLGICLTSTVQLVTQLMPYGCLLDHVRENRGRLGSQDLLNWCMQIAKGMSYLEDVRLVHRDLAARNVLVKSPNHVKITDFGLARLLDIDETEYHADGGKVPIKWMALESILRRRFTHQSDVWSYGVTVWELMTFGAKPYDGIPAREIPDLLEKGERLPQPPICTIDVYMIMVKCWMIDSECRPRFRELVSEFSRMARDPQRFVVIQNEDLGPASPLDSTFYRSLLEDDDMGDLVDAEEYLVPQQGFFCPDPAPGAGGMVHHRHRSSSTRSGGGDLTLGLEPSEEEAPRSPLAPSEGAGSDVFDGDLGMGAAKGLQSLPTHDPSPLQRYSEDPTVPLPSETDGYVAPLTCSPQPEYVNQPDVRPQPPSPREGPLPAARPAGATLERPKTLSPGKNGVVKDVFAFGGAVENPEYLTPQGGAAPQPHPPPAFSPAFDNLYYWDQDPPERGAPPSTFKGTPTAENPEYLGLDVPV

The target in this assay is Receptor tyrosine-protein kinase erbB-2 (Homo sapiens, UniProt P04626). Description: Inhibitory activity tested against protein kinase HER-2.

With `COc1cc(/C=C(\C#N)C(N)=O)cc(CSC2=NCCS2)c1O`, the IC50 (in general, the concentration at which inhibition is half-maximal) was 8.71 µM.

Source of the values: ChEMBL document CHEMBL1136802, “Receptor-guided alignment-based comparative 3D-QSAR studies of benzylidene malonitrile tyrphostins as EGFR and HER-2 kinase inhibitors” (J Med Chem, 2003).
